The numbers were not newly measured in US9492388B2, “Coated particles for sustained-release pharmaceutical administration” (St. James Associates LLC/Faber Research Series, priority 2002, dated 2016), which cites them from elsewhere.

The conditions of this series: in vivo.

For the substance procaine penicillin, the “period over which therapeutic levels are sustained” value was 14 to 28 days.
